Reference: ChEMBL document CHEMBL1150971, “Crystal structures of catalytic subunit of cAMP-dependent protein kinase in complex with isoquinolinesulfonyl protein kinase inhibitors H7, H8, and H89. Structural implications for selectivity” (J Biol Chem, 1996)

Key:
[1] = biological target: cAMP-dependent protein kinase A (Bos taurus, UniProt P00515+P00517+P05131+P31322); experiment: Inhibitory constant against bovine cAPK (PKA); format: protein-complex assay
[2] = Inhibitory constant against cGPK (PKG); parameters: species or system Sus scrofa

Ki [1]: 480 nM
Ki [2]: 480 nM
SMILES: O=S(=O)(NCCNC/C=C/c1ccc(Br)cc1)c1cccc2cnccc12
